Reference: publication PMC11574045, “A cofactor-induced repressive type of transcription factor condensation can be induced by synthetic peptides to suppress tumorigenesis” (The EMBO Journal, 2024)

System: HEK293FT cells transfected with TF library
Assay: Screening of TF condensates based on fluorescent puncta
Type: cell-based
Details: Figure 1B numerical data; TF library screen, one value per transcriptional factor
Protocol: TF plasmids were automatically added to black-walled 384-well plates at 80 ng per well to reach a final concentration of 1.6 μg/ml. Polyethylenimine (PEI, Sigma) was then added to the plasmid-loaded plates at 240 ng per well (4.8 μg/ml). Subsequently, HEK293FT cells were seeded into the plate at 2000 cells per well. After 60 h, cells were cultured in medium with or without glucose for 12 h, and then fixed with 4% paraformaldehyde (PFA) at room temperature for 30 min. After three washes with PBS, fixed cells were permeabilized with 0.05% Triton X-100 for 15 min. Thereafter, cells were blocked with 5% BSA for 1 h, and then incubated overnight with anti-Flag (Sigma F3165, 1:200) and anti-GAL4 (Abbkine ABP57232, 1:200) primary antibodies at 4 °C. The cells were then gently washed with PBS, followed by being incubated with Alexa Fluor Plus 488 goat anti-mouse IgG secondary antibody (Thermo A32723, 1:400) or Alexa Fluor Plus 488 goat anti-rabbit IgG secondary antibody (Thermo A32731, 1:400) for 1 h. The plates were kept at 4 °C in the dark before being analyzed using an Opera System (Perkin Elmer). Fifty random fields per well were scanned and analyzed using the Columbus Plus Image Data Storage and Analysis System (Perkin Elmer).

B1: IFNB1 (protein, UniProt P01574 22-187, looked up)
Interferon beta: MSYNLLGFLQRSSNFQCQKLLWQLNGRLEYCLKDRMNFDIPEEIKQLQQFQKEDAALTIYEMLQNIFAIFRQDSSSTGWNETIVENLLANVYHQINHLKTVLEEKLEKEDFTRGKLMSSLHLKRYYGRILHYLKAKEYSHCAWTIVRVEILRNFYFINRLTGYLRN
  Z score of condensed fraction: -0.3743
